Experimental data reported in publication PMC12828543, “Preclinical drug screen identifies WEE1 inhibitor and vinca alkaloid as a combination treatment concept for Li-Fraumeni syndrome medulloblastoma” (iScience, 2025).

System: SJ-GBM2
Experiment: Validation in established cell lines (0.1-10,000 nM, triplicates, 72 h, CellTiter-Glo 2.0)
Format: cell-based
Conditions: Homo sapiens, read-out: SJ-GBM2 Emax
Protocol: . Following 72-hour exposure cell viability was measured using CellTiter-Glo 2.0 Assay (cat.no. G9241, Promega) and the Spark microplate reader (Tecan).
DSS3 (single drug screen and validation steps) and Emax (validation step only) were estimated based on four-parameter logistic curves.

Question: With C[C@@H]1COCCN1c1cc(-c2ccnn2C)c2ccnc(-c3ccn[nH]3)c2n1 [BAY-1895344] as the compound, how does the Emax read?
Answer: 95.3%
